Test results as given in patent publication US11738087B2, “Lymph directing prodrugs” (Monash University, priority 2015, dated 2023).
Values joined by “and” are separate entries in the source; they are usually repeats but may differ in a detail not shown here. Equal values may be shown once.

Legend:
[1] = Lymphatic transport studies in rats (mesenteric lymph duct cannulated, intraduodenal infusion)
[2] = Pharmacokinetic (PK) studies in rats after oral gavage (plasma free parent drug)

For “testosterone-succinic acid-TG [Compound 21]”, the “Transport of total TST derivatives in lymph (% of dose)” value ([1]; intraduodenal infusion, anaesthetised, mesenteric lymph-duct cannulated female SD rats, mean ± SEM (n≥3) or mean ± range (n=2)) was 13.4 % of dose and 13.4 ± 1.7 % of dose, the “Fold increase (compared with control group dosed with TU)” value ([1]; lymphatic transport, testosterone series, female SD rats) was 7.2 and the “AUC0-24 h fold increase compared with TU group” value ([2]; plasma testosterone exposure, SD female rats) was 2.9. For the same substance, the “Tmax” value ([2]; plasma testosterone, SD female rats, mean ± SEM) was 1.1 ± 0.1 h, the “AUC0-24 h” value ([2]; plasma testosterone, SD female rats, normalized to 2 mg/kg equivalent testosterone dose, mean ± SEM) was 0.0196 ± 0.0008 µM·h and the Cmax ([2]; read-out: Cmax (nmol/L), plasma testosterone, conscious carotid artery cannulated SD female rats, normalized to 2 mg/kg equivalent testosterone dose, mean ± SEM) was 13.7 ± 0.7 nmol/L.
